# Values quoted from earlier work, collected in publication PMC10837402, “Unnatural amino acid substitutions to improve in vivo stability and tumor uptake of ^68Ga-labeled GRPR-targeted TacBOMB2 derivatives for cancer imaging with positron emission tomography” (EJNMMI Radiopharmacy and Chemistry, 2024).
# The chains behind the UniProt entries cited, without tags or fusion partners. Where a name states a change or a piece, a line headed by the entry shows the natural chain unless it says otherwise.
# UniProt P30550: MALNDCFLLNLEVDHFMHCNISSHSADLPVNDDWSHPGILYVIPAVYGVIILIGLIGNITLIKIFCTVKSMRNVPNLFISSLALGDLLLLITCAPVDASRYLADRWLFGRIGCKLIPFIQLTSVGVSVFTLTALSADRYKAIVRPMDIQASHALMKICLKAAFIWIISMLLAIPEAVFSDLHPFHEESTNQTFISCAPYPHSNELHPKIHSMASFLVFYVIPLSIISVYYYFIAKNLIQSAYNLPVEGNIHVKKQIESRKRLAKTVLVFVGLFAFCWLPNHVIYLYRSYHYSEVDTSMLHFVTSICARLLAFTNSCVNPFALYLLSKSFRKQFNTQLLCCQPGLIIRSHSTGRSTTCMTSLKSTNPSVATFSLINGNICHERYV
# Biological target: T1, GRPR (Homo sapiens, UniProt P30550)
# T1 construct: generated using GRPR-expressing PC-3 cells; endogenous in cells; host or cells: PC-3 cells
# Conditions: ref Horwell, et al. ([1996]); read-out: GRPR binding affinity (Ki); cited from earlier work
row,Substance,Ki [nM]
1,Ac-Bombesin(7–14),0.7
2,Ac-[NMe-Gly^11]Bombesin(7–14),25
3,Ac-[NMe-His^12]Bombesin,0.4
